Shown are actives, neighbours in structure and some others; about 2.8% of the full set was active somewhere.
esBAF inh: SWI/SNF esBAF complex inhibition; mouse ES cells, Bmi1-luciferase knock-in reporter, 24 h; 100% = twice the neutral-well signal; reporter increase, % at 12.5 µM; actives 2% (n = 350,000); AID 602393; in the data active = activation above about 40%; inconclusive = no clear call, values can overlap the other calls;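 note: 0% = median of the plate's neutral control wells and 100% = double that signal; a rise in the Bmi1 reporter signal indicates esBAF inhibition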
miR-122 sensor: inhibitors of miR-122 in Huh7 cells. Huh7 miR-122 Renilla luciferase sensor, 48 h; neutral wells = 0, positive control = 100. activation (reporter increase), % at 12.5 µM. actives 0.3% (n = 340,000). AID 602342;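 active = mean replicate activation score at least 90 and every replicate individually at or above 90; inconclusive = only one of the two criteria met; inactive = neither criterion met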;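 note: higher luciferase means less miR-122 activity so hits act as miR-122 inhibitors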
Yeast UUG start: modulators of start codon recognition fidelity in yeast. S. cerevisiae UUG-firefly luciferase reporter, luminescence/redox ratio. activity score, % at 18.7 µM. 0.13% of 350,000 active. AID 602363;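 active = replicate mean at a twofold rise or more, about +100% in these data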;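 also: firefly luciferase made from a UUG start codon reports start codon fidelity; reporter light over untreated wells divided by growth signal over untreated wells; some hits fall short of that in this replicate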
MITF TRPM1 HTS: increases MITF-driven TRPM1 promoter luciferase signal. SK-MEL-5 TRPM1-promoter luciferase, 24 h; % of positive control, neutral wells = 0. activation, % at 12.5 µM. actives 0.75% (n = 300,000). AID 588334;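 active = mean activation of at least 80% with every replicate also reaching 80%; inconclusive = mean reaches 80% but some replicate falls short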;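 note: 0% = neutral control wells and 100% = parthenolide positive control wells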
Wnt bcat act: activators of Wnt/beta-catenin signaling; Wnt/beta-catenin reporter cell assay, activator, plate reader; activation, % at 9.35 µM; actives 1.2% (n = 300,000); in the data active = activation above about 30%, passing the limit was not always enough; inconclusive = no clear call, values can overlap the other calls;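 note: 0% = neutral control wells and 100% = positive control wells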
PglD DTNB: inhibitors of Campylobacter jejuni PglD acetyltransferase; purified PglD enzyme, DTNB colorimetric CoA detection; inhibition, % at 12.5 µM; actives 0.098% (n = 360,000); in the data active = inhibition above about 16%, passing the limit was not always enough; inconclusive = no clear call, values can overlap the other calls
Ring1 derepress: de-represses Ring1 in mouse ESCs, confirming esBAF inhibition; 550 tested, under 10 active; fold change at 33 µM; shares compounds with esBAF inh; mouse ESC E14, Ring1 mRNA RT-qPCR fold change;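 active = Ring1 gene expression raised more than 2-fold over untreated cells in both replicates at either tested dose; inconclusive = only one replicate above 2-fold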;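 note: Ring1 transcript normalised to actin housekeeping signal by TaqMan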
esBAF Fgf4 qPCR: represses Fgf4 in mouse ESCs, confirming esBAF inhibition | shares compounds with esBAF inh | mouse ESC E14, Fgf4 mRNA qPCR fold change; stronger effect = lower value | Fgf4 expression fold change at 33 µM | actives 4% (n = 550);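 active = Fgf4 expression under 0.8 fold of control in both repeat measurements at one or both tested doses; inconclusive = under 0.8 fold in just a single repeat measurement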;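 note: Fgf4 transcript normalised to actin in duplex TaqMan qPCR; cells exposed to compound for 24 h before lysis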
Bmi1 derepress: de-represses Bmi1 in mouse ESCs, confirming esBAF inhibition | mouse ESE14 ES cells, Bmi1 mRNA qPCR fold; stronger effect = higher value | shares compounds with esBAF inh | AID 743180 | fold change at 33 µM | 550 tested, under 10 active;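 active = Bmi1 expression fold change above 6 at either tested concentration, seen in replicate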;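 note: higher fold means more Bmi1 de-repression and stronger esBAF inhibition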
A549 tox SP: cytotoxicity in A549 cells. shares compounds with esBAF inh. plate reader. cell viability change % (negative = cytotoxic), % at 25 µM, hits read low. 550 tested, under 10 active. AID 743188; call rule not given here
HepG2 tox SP: HepG2 cell cytotoxicity at single point | activity change, negative = inhibition, % at 25 µM | shares compounds with esBAF inh | plate reader; stronger effect = lower value | actives 4% (n = 550); in the data active = activity change below about -50%
HEK293 tox SP: cytotoxicity in HEK293 cells; shares compounds with esBAF inh; plate reader; activity change, negative = inhibition, % at 25 µM, hits read low; actives 3% (n = 550); in the data active = activity change below about -38%, passing the limit was not always enough
* hit, by the source's call; ? = inconclusive; . = no result given; [ ] = dose if it differs, or a comment.

Key to letters – A = esBAF inh; B = miR-122 sensor; C = Yeast UUG start; D = MITF TRPM1 HTS; E = Wnt bcat act; F = PglD DTNB; G = Ring1 derepress; H = esBAF Fgf4 qPCR; I = Bmi1 derepress; J = A549 tox SP; K = HepG2 tox SP; L = HEK293 tox SP
COc1ccccc1C(=O)NCCC(=O)NC1CCC(C)CC1 (centres undefined)
  A: 73*	B: .	C: -16	D: ?	E: -5	F: 2	G: 1.5	H: 1.1	I: 1.3	J: -9	K: -26	L: -9
COc1ccccc1C(=O)NCCC(=O)NC1CCCCC1C (centres undefined)
  A: -4	B: 0	C: -15	D: -3	E: -2	F: -1	G: .	H: .	I: .	J: .	K: .	L: .
Cc1ccnc(NC(=O)c2ccc3c(c2)C(=O)N(CC(C)C)C3=O)c1
  A: 74*	B: .	C: -57	D: 61	E: 16	F: -5	G: 1.2	H: 0.84	I: 1.5	J: -13	K: 1	L: -13
Cc1ccc(O)c(NC(=O)c2ccc3c(c2)C(=O)N(CC(C)C)C3=O)c1
  A: 57*	B: 5	C: -16	D: .	E: 20	F: -11	G: 1.2	H: 0.94	I: 1.2	J: -7	K: -30	L: -7
CCCN1C(=O)c2ccc(C(=O)Nc3cc(C)ccc3O)cc2C1=O
  A: 30	B: 9	C: -23	D: .	E: 6	F: 4	G: .	H: .	I: .	J: .	K: .	L: .
C[C@@H]1CN([C@H](C)CO)C(=O)Cc2cc(N(C)C)ccc2O[C@H]1CN(C)Cc1ccc(Oc2ccccc2)cc1
  A: -1	B: 6[16.7 µM]	C: -15	D: .	E: .	F: -3	G: .	H: .	I: .	J: .	K: .	L: .
COc1ccc(CN2C[C@@H](C)[C@@H](OC)CN(C)C(=O)c3cc(NC(C)=O)ccc3OC[C@@H]2C)cc1
  A: 3	B: -14[16.7 µM]	C: -13	D: .	E: .	F: 1	G: .	H: .	I: .	J: .	K: .	L: .
COc1ccc(Cl)cc1C(=O)NNC(=O)c1cccs1
  A: 55*	B: 1	C: -1	D: 38	E: 0	F: 0	G: 1.3	H: 0.96	I: 1.4	J: -3	K: -35	L: -15
O=C(Nc1nc2c(s1)COc1ccccc1-2)c1cccs1
  A: -3	B: -2	C: -20	D: .	E: 1	F: 7	G: .	H: .	I: .	J: .	K: .	L: .
O=C(Nc1nc2c(s1)CCc1ccccc1-2)c1cccs1
  A: 71*	B: 3	C: -17	D: 23	E: .	F: -7	G: 1.8	H: ?	I: 2.3	J: -3	K: -5	L: 12

The list goes on, starting with the last 2 of the part before.
Key to letters – A = esBAF inh; B = miR-122 sensor; C = Yeast UUG start; D = MITF TRPM1 HTS; E = Wnt bcat act; F = PglD DTNB; G = Ring1 derepress; H = esBAF Fgf4 qPCR; I = Bmi1 derepress; J = A549 tox SP; K = HepG2 tox SP; L = HEK293 tox SP
O=C(Nc1nc2c(s1)COc1ccccc1-2)c1cccs1
  A: -3	B: -2	C: -20	D: .	E: 1	F: 7	G: .	H: .	I: .	J: .	K: .	L: .
O=C(Nc1nc2c(s1)CCc1ccccc1-2)c1cccs1
  A: 71*	B: 3	C: -17	D: 23	E: .	F: -7	G: 1.8	H: ?	I: 2.3	J: -3	K: -5	L: 12
Nc1ccc2c(c1)Cc1cc(N)c(Cl)cc1-2
  A: 88*	B: .	C: -11	D: 32	E: -4	F: -1	G: 1.4	H: 1	I: 1.6	J: -8	K: -41	L: 9
COc1cccc(NC(=O)c2sc3nc4n(c(=O)c3c2C)CCC4)c1
  A: 57*	B: -9	C: -1	D: 77	E: 15	F: 1	G: 1.1	H: 1	I: 1.1	J: -14	K: -11	L: -10
Cc1c(C(=O)Nc2ccc(Oc3ccccc3)cc2)sc2nc3n(c(=O)c12)CCC3
  A: -10	B: -2	C: .	D: 0	E: .	F: .	G: .	H: .	I: .	J: .	K: .	L: .
CCCC(=O)Nc1ccc2c(c1)c1ccccc1n2CC
  A: .	B: .	C: .	D: -6	E: -1	F: .	G: .	H: .	I: .	J: .	K: .	L: .
CCn1c2ccccc2c2cc(NC(=O)N3CCCCC3)ccc21
  A: 96*	B: .	C: 12	D: .	E: 4	F: -8	G: 1.1	H: 0.94	I: 1.9	J: 7	K: 7	L: -1
CN1C(=O)c2cc(NC(=O)Cc3cccs3)ccc2OC[C@H]2O[C@H](CC(=O)N[C@H]3CCN(Cc4ccccc4)C3)CC[C@H]21
  A: 3	B: .	C: .	D: .	E: .	F: 8	G: .	H: .	I: .	J: .	K: .	L: .
COc1ccc2oc(-c3ccccc3)cc(=O)c2c1
  A: -43	B: 10	C: -55	D: .	E: 0	F: 7	G: .	H: .	I: .	J: .	K: .	L: .
CC(C)CN=c1cc(-c2ccccc2)oc2ccc(Cl)cc12
  A: 54*	B: 1	C: .	D: 53	E: .	F: .	G: 0.62	H: ?	I: 6.9*	J: -7	K: -14	L: 5
c1ccc(-c2noc(CC3CCCCC3)n2)cc1
  A: 58*	B: 5	C: 4	D: ?	E: 10	F: 2	G: 1.2	H: 1.2	I: 1.1	J: -6	K: -21	L: -5
O=S(=O)(c1ccccc1)N(Cc1nc(-c2ccccc2)no1)C1CCCCC1
  A: 7	B: 14	C: -11	D: 2	E: .	F: -8	G: .	H: .	I: .	J: .	K: .	L: .
COc1ccc(-c2nc(Cc3ccc(Cl)cc3)no2)cc1OC
  A: .	B: -6	C: -10	D: 1	E: .	F: -1	G: .	H: .	I: .	J: .	K: .	L: .
Clc1ccc(-c2nc(Cc3ccccc3)no2)cc1
  A: 70*	B: .	C: -10	D: 106*	E: .	F: 6	G: 1.1	H: 0.93	I: 1.2	J: -16	K: -13	L: -13
O=C(O)C=C1CCN(c2ncc(C(F)(F)F)cc2Cl)CC1
  A: 63*	B: -2	C: -2	D: .	E: 19	F: 1	G: 1.1	H: 1.1	I: 1.5	J: -6	K: -13	L: -9
CCCN1C[C@H](C)[C@H](OC)CN(C)C(=O)c2cc(NC(=O)Nc3c(C)noc3C)ccc2OC[C@@H]1C
  A: -5	B: .	C: -10	D: .	E: .	F: 1	G: .	H: .	I: .	J: .	K: .	L: .
CC(=O)n1nc(-c2ccccc2)nc1NCc1ccc(N(C)C)cc1
  A: 59*	B: 3	C: -11	D: 74	E: 13	F: 4	G: 1.1	H: 0.92	I: 1.2	J: -7	K: 7	L: -17
CN(C)c1ccc(CNc2nc(-c3ccccc3)nn2S(C)(=O)=O)cc1
  A: 1	B: 3	C: -18	D: 18	E: 10	F: -5	G: .	H: .	I: .	J: .	K: .	L: .
CO[C@H]1CN(C)C(=O)c2cc(NS(=O)(=O)c3ccc(C)cc3)ccc2OC[C@H](C)N(Cc2nccs2)C[C@@H]1C
  A: 6	B: .	C: 3	D: .	E: .	F: 0	G: .	H: .	I: .	J: .	K: .	L: .
c1ccc(-c2nnc3oc(-c4cccs4)nn23)cc1
  A: 166*	B: 3	C: -15	D: .	E: -1	F: 1	G: 1.2	H: ?	I: 2.8	J: -9	K: -39	L: -12
COCC(=O)N[C@@H]1C=C[C@@H](CC(=O)NCc2ccc(Cl)cc2)O[C@H]1CO
  A: -2	B: .	C: .	D: .	E: .	F: 3	G: .	H: .	I: .	J: .	K: .	L: .
CCn1c(C)nc2cc(C(=O)NN=Cc3ccccc3OC(F)F)ccc21
  A: 79*	B: -6	C: -10	D: 90*	E: -3	F: 6	G: 1.1	H: 1.2	I: 1.4	J: -11	K: -26	L: -11
CCn1c(C)nc2cc(C(=O)N/N=C/c3ccccc3C)ccc21
  A: 30	B: -4	C: -30	D: 31	E: 5	F: -4	G: .	H: .	I: .	J: .	K: .	L: .
C[C@H](CO)N1C[C@H](C)[C@@H](CN(C)CC2CCCC2)Oc2cc(C#CC(C)(C)O)ccc2S1(=O)=O
  A: 0	B: 59[16.7 µM]	C: -10	D: .	E: .	F: 1	G: .	H: .	I: .	J: .	K: .	L: .
O=C(O)c1ccc(N/N=C/c2cccc3nccnc23)cc1
  A: 65*	B: 0	C: -19	D: 49	E: 23	F: 4	G: 1.2	H: 0.85	I: 1.8	J: -13	K: -29	L: 6
COc1cc(C=C2C(=O)c3ccccc3C2=O)cc(OC)c1
  A: .	B: .	C: .	D: .	E: 2	F: .	G: .	H: .	I: .	J: .	K: .	L: .
COc1cc(/C=C/c2ccccc2)cc(OC)c1
  A: 68*	B: .	C: -19	D: 96*	E: -1	F: -2	G: 0.89	H: 0.99	I: 1.3	J: -12	K: -19	L: -11
COc1ccc(NC(=O)N[C@@H]2CC[C@H](CCNC(=O)c3ccccc3F)O[C@H]2CO)cc1
  A: 1	B: .	C: -6	D: .	E: .	F: 0	G: .	H: .	I: .	J: .	K: .	L: .
C[C@@H]1CN([C@@H](C)CO)C(=O)c2cc(-c3ccncc3)cnc2O[C@H]1CN(C)C(=O)C1CCCCC1
  A: -2	B: -2[16.7 µM]	C: -4	D: .	E: .	F: 2	G: .	H: .	I: .	J: .	K: .	L: .

Screening results: PubChem BioAssay, Broad Institute
